Source: ChEMBL document CHEMBL1155847, “Novel indoline-based acyl-CoA:cholesterol acyltransferase inhibitor with antiperoxidative activity: improvement of physicochemical properties and biological activities by introduction of carboxylic acid” (J Med Chem, 2008)

Biological target: T1, Acyl-CoA:cholesterol acyltransferase (Oryctolagus cuniculus, UniProt Q95214)
T1 sequence (Q95214 whole entry): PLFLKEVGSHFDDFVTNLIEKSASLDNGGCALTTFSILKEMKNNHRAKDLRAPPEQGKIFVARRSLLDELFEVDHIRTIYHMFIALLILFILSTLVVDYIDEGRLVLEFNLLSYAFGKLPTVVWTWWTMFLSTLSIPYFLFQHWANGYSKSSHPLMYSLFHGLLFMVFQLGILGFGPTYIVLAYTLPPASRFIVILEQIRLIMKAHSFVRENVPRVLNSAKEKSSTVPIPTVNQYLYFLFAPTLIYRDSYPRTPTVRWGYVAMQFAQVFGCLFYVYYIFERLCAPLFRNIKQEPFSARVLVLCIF
Experiment: Inhibition of normocholesterolemic rabbit liver ACAT
Procedure, shortened: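 Liver from normocholesterolemic male Japanese White rabbits homogenized in sucrose/phosphate/EDTA/dithioerythritol buffer pH 7.4. Microsomes collected by 12000g then 105000g spins. Microsomes in 154 mM phosphate pH 7.4 with BSA, preincubated 5 min at 37 °C with compound. Then 30 nmol [1-¹⁴C]oleoyl-CoA added, 20 min at 37 °C. Cholesteryl ester extracted and separated by TLC. IC50 from duplicate tubes, mean of 3-5 experiments.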

Compound | IC50 [µM]
CCCCCCCCN1CCc2c(C)c(CN)c(C)c(NC(=O)C(C)(C)C)c21 | 1.1
CCCCCCCCN1CCc2c(C)cc(C)c(NC(=O)C(C)(C)C)c21 | 0.12
